The target in assay [1] is wild type RET (Homo sapiens (Human), UniProt P07949). Briefly: RET Wild Type Assay at KM (Caliper electrophoretic mobility shift). As to conditions: compounds approved or in development for RET-related conditions; read-out: RET wt Biochemical IC50.
The target in assay [2] is RET V804L (Homo sapiens (Human), UniProt P07949, V804L). Briefly: RET V804L Gatekeeper Mutant Assay at KM (Caliper electrophoretic mobility shift). As to conditions: compounds approved or in development for RET-related conditions; read-out: RET V804L Biochemical IC50.

The chains behind the UniProt entries cited, without tags or fusion partners. Residues count along the entry.
UniProt P07949, 658-1114: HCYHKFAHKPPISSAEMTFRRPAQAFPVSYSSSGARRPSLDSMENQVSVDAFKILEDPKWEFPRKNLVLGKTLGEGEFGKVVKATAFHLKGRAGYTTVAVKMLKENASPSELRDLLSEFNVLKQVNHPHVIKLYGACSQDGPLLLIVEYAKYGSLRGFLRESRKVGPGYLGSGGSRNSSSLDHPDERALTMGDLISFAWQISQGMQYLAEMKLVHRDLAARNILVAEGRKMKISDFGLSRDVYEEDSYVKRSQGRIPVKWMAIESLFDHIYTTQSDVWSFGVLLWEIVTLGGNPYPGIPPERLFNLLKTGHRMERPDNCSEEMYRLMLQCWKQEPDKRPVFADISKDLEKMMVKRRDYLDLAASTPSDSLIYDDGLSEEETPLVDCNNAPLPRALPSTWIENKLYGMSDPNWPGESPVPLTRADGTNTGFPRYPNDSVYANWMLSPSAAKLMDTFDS
UniProt P07949, 658-1114 V804L: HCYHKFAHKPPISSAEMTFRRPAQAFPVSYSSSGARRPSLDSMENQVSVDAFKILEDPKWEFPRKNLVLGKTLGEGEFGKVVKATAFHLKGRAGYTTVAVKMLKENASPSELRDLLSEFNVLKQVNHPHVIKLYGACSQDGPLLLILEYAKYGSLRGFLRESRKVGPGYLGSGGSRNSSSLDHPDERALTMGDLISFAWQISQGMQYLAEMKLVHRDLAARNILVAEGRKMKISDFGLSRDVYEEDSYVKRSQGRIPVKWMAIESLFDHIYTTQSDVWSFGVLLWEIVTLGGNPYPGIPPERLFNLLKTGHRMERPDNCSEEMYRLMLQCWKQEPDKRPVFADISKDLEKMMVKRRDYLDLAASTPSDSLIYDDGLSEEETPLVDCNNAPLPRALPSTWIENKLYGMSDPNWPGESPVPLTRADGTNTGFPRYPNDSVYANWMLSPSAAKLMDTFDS

Results on 1 compound are retold here after patent publication US10584114B2, “Inhibitors of RET” (BLUEPRINT MEDICINES CORPORATION, priority 2015, dated 2020).

For the compound `CNC(=O)c1cc(Oc2ccc(NC(=O)Nc3ccc(Cl)c(C(F)(F)F)c3)c(F)c2)ccn1` [Regorafenib, reference compound], the values for the IC50 in assay [1] and in assay [2] were 12 nM and 53 nM, respectively.

Broadly, the IC50 is the concentration that gives 50% inhibition.
